# Tested on: SKBR3 cells
# Assay: MTT assay, SKBR3 cells
# Type: cell-based, human
# Details: carboplatin 16 μg, melphalan 20 μg
# Procedure: The MTT assay is generally used to assess cellular viability as a function of mitochondrial activity. The assay was used to examine effects of cisplatin with and without the c-erbB-2 monoclonal antibodies and was carried out as follows:
# MTT was added for 4 hours and the crystals dissolved with isopropanol/0.04N HCI/0.3% SDS.
smiles,measurement,value
O=P1(N(CCCl)CCCl)NCCCO1 (stereo not shown) [cytoxan],synergistic response of the drug combined with TAb 250,failed to show a synergistic response

# From patent US6884418B1, “Use of ligand-mimicking agents and anti-neoplastic drugs in cancer therapy” (Berlex Laboratories, Inc., priority 1989, dated 2005)
